This is an account of results in US20230340419A1, “METHODS FOR GENERATION OF MOUSE AND HUMAN URETERIC BUD ORGANOIDS AND COLLECTING DUCT ORGANOIDS” (University of Southern California, priority 2020, published 2023).

The subject of the experiment is Wnt11-RFP UB organoid. As to the kind of experiment: Stage III 1st round screening of growth factors and small molecules for UB organoid culture condition. The experiment is classed as cell-based, mouse. To be noted: reagent added to FGF9 + C3 + TTNPB + GDNF; compared to that control group. From the text: We employed this Wnt11-RFP reporter system as a readout to screen for a culture condition that maintained the progenitor identity of UPCs in vitro. T-shaped UBs were manually isolated from E11.5 kidneys of Wnt11-RFP mice, and immediately embedded into Matrigel to set up a 3D culture platform that supported epithelial branching. In this 3D culture format, built on previous efforts towards the ex vivo culture of UB, hundreds of different combinations of growth factors and small molecules were tested (see also the Materials and Techniques section below for details under subheading “Screening for optimal UB culture condition”).
We systematically screened the optimal UB culture condition in four different stages (Stages I-IV).
In Stage III, based on the optimized recipe consisting of FGF9, TTNPB, CHIR99021 (3 μM) and GDNF, we preformed our 1st round of screening of growth factors and small molecules targeting major developmental pathways (e.g. TGF-β, BMP, Wnt, FGF, Hedgehog and Notch) and others. The branching morphogenesis, growth rate and Wnt11-RFP were recorded as readouts (Table 1). […] Representative images were taken at least for LDN193189, A83-01, and R-Spondin 1. […]

Regarding TNF-α: reagent tested in screening, the Wnt11-RFP entry was “Worse”.
